{"source": "patent US4027039A", "about": "(priority 1975, dated 1977)", "key": {"Herpes virus [1]": {"system": "Herpes virus", "conditions": "for No. animals surviving after 6-9 days: total dose .05 μg"}, "[2]": {"system": "Influenza, Ann Arbor virus", "test": "Influenza Ann Arbor in mice, oral; schedule by table; late read day 5 (Tables 15, 25, 29, 30), 6 (18, 20, 22, 23, 26, 27, 28, 54), 7 (14, 19, 21, 24, 53, 56), 8 (16, 17, 51), 9 (11, 55)", "format": "in vivo, mouse"}, "Herpes virus [3]": {"system": "Herpes virus", "test": "Herpes virus in chicken eggs, single dose 24 hours pre-infection", "format": "in vivo, chick embryo", "conditions": "20 μg"}, "Influenza PR 8 virus [4]": {"system": "Influenza PR 8 virus", "test": "Influenza PR 8 in mice, oral; schedule by table; late read day 6 (Table 37), 7 (33, 36), 8 (32, 35, 47), 10 (38); control fraction 18/20 (Table 32), 19/20 (Table 35), else 100%", "format": "in vivo, mouse", "conditions": "for No. animals surviving after 6-10 days: thiosemicarbazone"}, "Influenza PR 8 virus [5]": {"system": "Influenza PR 8 virus", "test": "Influenza PR 8 in mice, subcutaneous; late read day 6 (Table 37), 8 (Table 47)", "format": "in vivo, mouse"}, "Influenza PR 8 virus [6]": {"system": "Influenza PR 8 virus", "test": "Influenza PR 8 in mice, intravenous (Table 31)", "format": "in vivo, mouse", "text": "Dose Schedule: No pre-infection; +30, +72 post-infection.\nRoute of Administration: Intravenous."}, "Influenza PR 8 virus [7]": {"system": "Influenza PR 8 virus", "test": "Influenza PR 8 in mice, drug in drinking water (Table 34)", "format": "in vivo, mouse"}, "[8]": {"system": "Influenza B Massachusetts virus", "test": "Influenza B Mass. in mice, oral; late read day 5 (Table 39), 7 (Table 40), 11 (Tables 61, 65); control fraction 16/20 (Table 61), else 100%", "format": "in vivo, mouse", "description": "A portion of a commercially available sample of amantadine was recrystallized from isopropanol. The activity of the material against Influenza B Mass. was tested for the sample as obtained, the recrystallized portion, and the mother liquor obtained from recrystallizing the portion."}}}
{"smiles": "NNC(N)=O", "note": "[semicarbazide]", "values": [{"measurement": "activity in words", "setting": "Herpes virus [1]; mouse, in vivo", "result": "very pronounced protection"}]}
{"smiles": "Cc1ccccc1NC(=S)NN=C1CCCC1", "note": "[cyclopentanone, 3-thio-4-o-tolyl-semicarbazone]", "values": [{"measurement": "Survivors", "setting": "[2]; total dose 30 ng", "result": 1}, {"measurement": "No. animals surviving after 5-7 days", "setting": "[2]; total dose 30 μg", "result": 5}]}
{"smiles": "CCC(C)=NNC(N)=S", "note": "[2-Butanone, thiosemicarbazone, 2-butanone, thiosemicarbazone]", "values": [{"measurement": "No. hatched", "setting": "Herpes virus [3]", "result": 2}, {"measurement": "No. animals surviving when 100% (or given fraction) of controls are dead", "setting": "Influenza PR 8 virus [4]; total dose .000005 μg", "result": 3}, {"measurement": "No. animals surviving after 6-10 days", "setting": "Influenza PR 8 virus [4]; total dose .000005 μg", "result": 3}, {"measurement": "No. animals surviving when 100% (or given fraction) of controls are dead", "setting": "Influenza PR 8 virus [4]; total dose .00005 μg, listed as 2-butanone thiosemicarbazone", "result": 3}, {"measurement": "No. animals surviving after 6-10 days", "setting": "Influenza PR 8 virus [4]; total dose .0005 μg", "result": 3}, {"measurement": "No. animals surviving after 6-8 days", "setting": "Influenza PR 8 virus [5]; total dose .00005 μg", "result": 3}, {"measurement": "No. animals surviving after 6-8 days", "setting": "Influenza PR 8 virus [5]; total dose .005 μg", "result": 3}, {"measurement": "No. animals surviving when 18/20 of controls are dead", "setting": "Influenza PR 8 virus [6]; total dose 2 μg", "result": 3}, {"measurement": "Survivors", "setting": "Influenza PR 8 virus [6]; total dose 2 μg", "result": 3}, {"measurement": "No. animals surviving when 18/20 of controls are dead", "setting": "Influenza PR 8 virus [6]; total dose 20 μg", "result": 3}, {"measurement": "Survivors", "setting": "Influenza PR 8 virus [6]; total dose 20 μg", "result": 3}, {"measurement": "Survivors", "setting": "Influenza PR 8 virus [7]; 5 Mg/ml in water, 24 h pre and 24 h post", "result": 3}, {"measurement": "Survivors", "setting": "Influenza PR 8 virus [7]; 24 h post-infection only, second of two printed columns", "result": 3}, {"measurement": "Survivors", "setting": "Influenza PR 8 virus [7]; .05 Mg/ml in water, 24 h pre and 24 h post", "result": 3}, {"measurement": "Survivors", "setting": "Herpes virus [1]; total dose .00005 μg", "result": 3}, {"measurement": "No. animals surviving when 100% (or given fraction) of controls are dead", "setting": "Herpes virus [1]; total dose .005 μg", "result": 3}, {"measurement": "No. animals surviving after 6-9 days", "setting": "Herpes virus [1]", "result": 3}]}
{"smiles": "CN1C(=O)/C(=N\\NC(N)=S)c2ccccc21", "note": "[Methisazone, 1-methylindole-2,3-dione, 3-thiosemicarbazone, reference compound]", "values": [{"measurement": "No. animals surviving after 6-9 days", "setting": "Herpes virus [1]", "result": 2}]}
{"smiles": "N=C(N)NN", "note": "[aminoguanidine, bicarbonate]", "values": [{"measurement": "No. animals surviving after 7 days", "setting": "[8]; total dose 40 pg", "result": 2}, {"measurement": "No. animals surviving after 7 days", "setting": "[8]; total dose 400 pg", "result": 4}, {"measurement": "No. animals surviving after 7 days", "setting": "[8]; total dose 4 ng", "result": 4}, {"measurement": "No. animals surviving after 7 days", "setting": "[8]; total dose 400 ng", "result": 3}, {"measurement": "No. animals surviving after 7 days", "setting": "[8]; total dose 4 μg", "result": 3}]}
